Test results from ChEMBL document CHEMBL4706672, “Discovery of a Napabucasin PROTAC as an Effective Degrader of the E3 Ligase ZFP91” (J Med Chem, 2021).

Protein sequences, listed by entry. Tags and fused reporters are not part of them. Lines headed by an entry give the natural chain unless they say otherwise; changes in a name come on top.
UniProt P40763, whole entry, looked up: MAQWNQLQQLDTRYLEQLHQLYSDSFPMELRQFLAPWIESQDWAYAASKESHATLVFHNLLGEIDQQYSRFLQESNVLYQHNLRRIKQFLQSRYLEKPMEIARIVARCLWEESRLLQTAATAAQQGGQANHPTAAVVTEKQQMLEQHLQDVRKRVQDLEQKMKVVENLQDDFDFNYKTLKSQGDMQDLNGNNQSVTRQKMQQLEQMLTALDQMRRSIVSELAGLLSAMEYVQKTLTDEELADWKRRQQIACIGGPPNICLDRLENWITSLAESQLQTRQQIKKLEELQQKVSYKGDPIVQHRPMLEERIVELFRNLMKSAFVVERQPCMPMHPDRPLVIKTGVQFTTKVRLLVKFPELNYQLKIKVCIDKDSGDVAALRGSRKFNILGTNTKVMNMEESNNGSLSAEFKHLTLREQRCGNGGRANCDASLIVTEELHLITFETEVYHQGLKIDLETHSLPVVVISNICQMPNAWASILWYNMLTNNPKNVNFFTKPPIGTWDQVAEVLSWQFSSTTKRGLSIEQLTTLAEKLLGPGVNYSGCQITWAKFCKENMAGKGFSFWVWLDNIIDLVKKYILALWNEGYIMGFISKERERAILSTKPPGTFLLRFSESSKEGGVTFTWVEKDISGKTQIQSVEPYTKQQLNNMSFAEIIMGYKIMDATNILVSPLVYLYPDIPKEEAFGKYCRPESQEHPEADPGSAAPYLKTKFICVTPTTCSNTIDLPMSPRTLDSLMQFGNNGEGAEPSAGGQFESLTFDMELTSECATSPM
UniProt Q96SW2: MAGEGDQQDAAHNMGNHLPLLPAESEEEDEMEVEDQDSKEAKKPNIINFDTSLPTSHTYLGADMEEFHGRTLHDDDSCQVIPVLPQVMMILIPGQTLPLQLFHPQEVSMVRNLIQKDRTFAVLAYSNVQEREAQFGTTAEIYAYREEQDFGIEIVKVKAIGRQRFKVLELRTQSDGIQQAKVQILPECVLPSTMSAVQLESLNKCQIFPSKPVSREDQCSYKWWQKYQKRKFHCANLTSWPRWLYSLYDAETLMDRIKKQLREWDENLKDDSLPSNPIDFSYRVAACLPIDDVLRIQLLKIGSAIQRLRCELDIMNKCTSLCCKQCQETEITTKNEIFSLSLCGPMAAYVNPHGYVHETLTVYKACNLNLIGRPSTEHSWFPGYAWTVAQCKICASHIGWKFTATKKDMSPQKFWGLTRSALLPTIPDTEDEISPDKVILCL

Assays:
[1] = target: Protein cereblon/Signal transducer and activator of transcription 3 (Homo sapiens, UniProt P40763+Q96SW2); test: Protac activity at CRBN/STAT3 in human BxPC-3 cells assessed as decrease in STAT3 expression level at 5 uM after 16 hrs by western blot analysis; type: cell-based
Summary of the method: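 BxPC-3 cells seeded at 500 × 10^3 per well in 6-well plates, treated 16 h. Sonication lysis at 4 °C in Tris/NaCl/Triton/SDS buffer pH 7.4 with protease and phosphatase inhibitors, BCA protein assay, SDS-PAGE, PVDF transfer. Probed for STAT3, pSTAT3 and NQO1 with GAPDH loading control; fluorescent secondary detection.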

[2] = target: Signal transducer and activator of transcription 3 (Homo sapiens) (UniProt P40763); test: Inhibition of STAT3 phosphorylation in human BxPC-3 cells at 5 uM after 16 hrs by western blot analysis; type: cell-based
Summary of the method: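 Cells were seeded in 6-well plates (BxPC-3 500 × 10^3, MIA PaCa-2 200 × 10^3 cells/well) and exposed to compound for 16 h. Lysis was at 4 °C by sonication in Tris/NaCl/Triton/SDS buffer, pH 7.4, with protease and phosphatase inhibitors. Lysates were run on SDS-PAGE, transferred to PVDF and probed for STAT3, pSTAT3 and NQO1 with GAPDH as loading control. Immunoblots were imaged on an Odyssey system.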

Activity [1]: Active | inhibition [2]: Active
SMILES: CC(=O)c1cc2c(o1)C(=O)c1ccccc1C2=O [NAPABUCASIN]

Active and inactive are the calls of the source. The calls are words filed in the database; no cut-off is given here.
